From patent US20150231238A1, “OVERCOMING RESISTANCE TO ERBB PATHWAY INHIBITORS” (MERRIMACK PHARMACEUTICALS, INC., priority 2011, published 2015) come the findings set out here.

The test system of assay [1] is BT474-M3 cells. In words: In vitro breast cancer model, viable cell count after 6 days. Type of assay: cell-based. The following applies: basal conditions.
Assay [2] relates to pAKT in heregulin-stimulated BT474-M3 cells. In words: Inhibition of AKT phosphorylation in heregulin-stimulated cells. Type of assay: cell-based. The following applies: dose range. An excerpt:
Viable cells are counted following 6 days of treatment.

For assay [3], the system named is BT474-M3 breast cancer xenograft. Put plainly: BT474-M3 breast cancer xenograft model. The assay is classed as in vivo, mice. The following applies: MM-111 3 mg/kg every 3 days, trastuzumab 1 mg/kg weekly. How it is done:
BT474-M3 cells (2×10^7 cells per mice) are inoculated subcutaneously into Nu/Nu immunodeficient mice, which are implanted with an estrogen pellet (0.72 mg; 60-day release) one day before the experiment. […] Tumors are measured twice a week and the experiment is ended at day 40.

Assay [4] relates to BT474-M3 parental (wild-type) cells. In words: Cell proliferation assay (WST-1), parental cells. The assay is classed as cell-based. The settings on record: series dilution, five days. How it is done:
(§1) BT474-M3 parental (wild-type) and trastuzumab-resistant cells are plated in 96-well plates (3000 cells/well). […] After five days of treatment, cell viability is measured by WST-1 (Roche, Cat. #5015944001) according to manufacturer's instructions. Cells treated with control (RPMI1640 with 10% FBS) are set as 100%, other treatments are expressed as percentage of the control.

Assay [5] relates to trastuzumab-resistant BT474-M3 cells. In words: Cell proliferation assay (WST-1), trastuzumab-resistant cells. The assay is classed as cell-based. The following applies: series dilution, five days. How it is done: as §1
(Tetrazolium assays rely on reduction of a dye to a coloured formazan, in cell work by metabolically active cells.)

Assay [6] relates to BT474-M3 wild type cell spheroids. Put plainly: Spheroid assay, parental cells. Type of assay: cell-based. The settings on record: series dilution, six days. How it is done:
(§2) BT474-M3 wild type and trastuzumab-resistant cells (2000 cells/well) are plated in Ultra Low Cluster 96-well plates (Costar®, Corning, N.Y.). […] Cells are cultured for six days. Spheroids are then examined by Nikon microscope and analyzed by MetaMorph® Image Analysis Software (Molecular Devices). The spheroid size from cells cultured in medium containing 10% FBS is set as a control.

Assay [7] deals with trastuzumab-resistant BT474-M3 cell spheroids. In words: Spheroid assay, trastuzumab-resistant cells. Type of assay: cell-based. How it is done: as §2

On to “trastuzumab: humanized anti-HER2 monoclonal antibody [reference compound]”, for which the “inhibition of cell proliferation” value in assay [1] is recorded as 32%; in assay [4] it was “significantly inhibited cell proliferation”; in assay [5] it was “inhibitory effect was significantly reduced”. Also, the “inhibition of AKT phosphorylation” value in assay [2] is listed as “did not inhibit AKT phosphorylation”. In assay [3], the completely regressed tumors entry is reported as “no complete regressions were observed”. Further, the “inhibition of spheroid growth” value in assay [6] was “significantly inhibited spheroid growth”; in assay [7] (trastuzumab-resistant cells, series dilution, six days) it was “diminished”. Besides, the “inhibition of spheroid growth in combination with gefitinib” value in assay [7] (in the presence of 100 nM gefitinib) is “not sufficient to overcome the resistance”. The “inhibition of spheroid growth in combination with erlotinib” value in assay [7] (in the presence of 300 nM erlotinib) was “not sufficient to overcome the resistance”.
